Assay results as given in patent US9029381B2, “Cyclopropyl amide derivatives” (Astrazeneca AB, priority 2007, dated 2015).

The chains behind the UniProt entries cited, without tags or fusion partners. Where a name states a change or a piece, a line headed by the entry shows the natural chain unless it says otherwise.
UniProt Q9Y5N1: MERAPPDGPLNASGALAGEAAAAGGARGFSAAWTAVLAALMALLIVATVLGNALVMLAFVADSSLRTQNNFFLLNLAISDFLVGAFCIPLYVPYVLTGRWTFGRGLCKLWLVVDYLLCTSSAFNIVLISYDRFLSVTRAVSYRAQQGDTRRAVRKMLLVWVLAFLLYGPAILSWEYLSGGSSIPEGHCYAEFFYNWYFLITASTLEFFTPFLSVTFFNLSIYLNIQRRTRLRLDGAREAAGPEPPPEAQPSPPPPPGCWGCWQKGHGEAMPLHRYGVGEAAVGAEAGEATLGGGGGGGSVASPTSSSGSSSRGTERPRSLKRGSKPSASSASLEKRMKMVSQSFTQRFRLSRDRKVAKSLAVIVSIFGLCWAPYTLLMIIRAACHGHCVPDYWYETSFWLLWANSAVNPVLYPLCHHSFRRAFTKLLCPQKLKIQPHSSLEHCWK

Columns and labels:
[1] = molecular target: human histamine H3 receptors (Homo sapiens (Human), UniProt Q9Y5N1); assay: Histamine H3 SPA with the agonist radioligand [3H]-N-α-methylhistamine (hH3 binding); settings: inhibition of [3H]-N-α-methylhistamine (1.4 nM) binding to CHO-K1 membranes expressing full-length human H3 (isoform 445)
Experimental: Histamine H3 SPA with the Agonist Radioligand [^3H]-N-α-Methylhistamine
The H3 binding assay was/can be used to evaluate the ability of at least one compound in accordance with formula I, Ia, Ib, and/or Ic to inhibit [^3H]-N-α-methylhistamine binding to CHO-K1 membranes expressing human histamine H3 receptors (full-length H3, the most prevalent brain isoform 445). In 200 μl 96-well SPA format, human H3 membranes (12.5 μg protein/well) and 1.4 nM [^3H]-N-α-methylhistamine were/can be incubated with at least one compound in accordance with formula I, Ia, Ib, and/or Ic for 1.5 hrs to determine percent effect with respect to total (1% DMSO) and non-specific binding (10 μM imetit). Reproducibility of the assay is such that IC50 curves can be generated in singlicate. Single poke (SP) testing can be done in triplicate.
Membranes, prepared from CHO-K1 cells stably expressing the human histamine H3 receptor, can be obtained from ACS.
Tested formula I, Ia, Ib, and/or Ic compounds were/can be provided as solubilized samples in neat DMSO. Serial dilutions were/can be performed in DMSO.
Plates were/can be 96-well Unifilter GF/B (Perkin Elmer, 6005177). Plates were/can be read on a Perkin Elmer TopCount. CPM data was/can be used to analyze unless DPM data generated by a quench curve was/is required.
• 1. 1 mg/ml BSA was/can be added to assay buffer (AB) on day of assay. • 2. Amounts required for bead/membrane pool in AB were/can be calculated: “P”−need 17.1 ml/assay plate+10 ml PlateMate excess. Buffer volume was/can be split between beads and membranes to allow for polytroning of membranes prior to addition to beads. • a. PVT-WGA SPA Beads: beads (P×9.83 mg/ml) were/can be resuspended for 1750 μg/well final. A minimum of 15 minutes was/can be waited prior to adding membranes (See b. below). • b. Membranes (hH3 membranes from CHO cells containing recombinant human H3 receptors, 11.7 mg/ml): membranes were/can be removed from −80° C. and thawed in RT waterbath. […] 5 μl samples were/can be calculated in quadruplicate on the 13 counter. […]

[2] = molecular target: human Histamine H3 receptor (hH3R) (Homo sapiens (Human), UniProt Q9Y5N1); assay: Guanosine 5'-O-(3-[35S]thio)triphosphate [GTPγS] binding assay; assay type: biochemical; settings: antagonist mode vs (R)-α-methyl histamine 30 nM; membranes from CHO cells expressing hH3R
Experimental: The IC50 and nH can be determined by fitting the data to model 205 in XLfit: y=A+((B−A)/(1+((C/x)^D)). Guanosine 5′-O-(3-[^35S]thio)triphosphate [GTPγS] Binding Assay
A GTPγS binding assay can be used to investigate antagonist properties of compounds in CHO cells (Chinese Hamster Ovary) transfected with human Histamine H3 receptor (hH3R). Membranes from CHO cells expressing hH3R (10 μg/well) are diluted in GTPγS assay buffer (20 mM Hepes, 10 mM MgCl2, 100 mM NaCl, pH 7.4) and preincubated with saponine (3 μg/ml), GDP (10 μM) and PVT-WGA SPA beads (125 μg/well) (Amersham) for 30 minutes. To determine antagonist activity, (R)-α-methyl histamine (30 nM) is added in 96 well SPA plate with [^35S]GTPγS (0.2 nM) and various concentration of H3R antagonists. The GTPγS binding assay is started with addition of the mixture membrane/saponine/GDP and incubated for 90 minutes at room temperature. The amount of bound [^35S]GTPγS is determined by using the MicroBeta Trilux counter (PerkinElmer). The percentage of [^35S]GTPγS bound in each sample is calculated as a percentage of that bound control sample incubated in absence of H3 antagonist. Duplicate determinations are obtained for each concentration, and the data are analyzed using ExcelFit4 to obtain the IC50.

Row | Compound | IC50 [1] | IC50 [2]
1 | CC(C)N1CCN(C(=O)[C@H]2C[C@@H]2c2ccccc2)CC1 (relative stereo) [Example 1, trans-(4-Isopropylpiperazin-1-yl)-(2-phenylcyclopropyl)methanone] | 0.0213 µM | 
2 | CC(C)N1CCN(C(=O)[C@H]2C[C@@H]2c2ccc(F)cc2)CC1 (relative stereo) [Example 10, trans-[2-(4-Fluorophenyl)cyclopropyl]-(4-isopropylpiperazin-1-yl)methanone] | 0.0102 µM | 
3 | N#Cc1ccc([C@H]2C[C@@H]2C(=O)N2CCN(C3CCC3)CC2)cc1 (relative stereo) [Example 21, trans-4-[2-(4-Cyclobutylpiperazine-1-carbonyl)cyclopropyl]benzonitrile] | 0.0202 µM | 0.0175 µM
4 | CC(C)N1CCN(C(=O)[C@@H]2C[C@H]2c2ccccc2)CC1 (single isomer, unassigned; enantiomer 2) [Example 32, trans-(4-Isopropylpiperazin-1-yl)-(2-phenylcyclopropyl)methanone, enantiomer 2] |  | 3.53 µM
